We go through 3 molecules from patent US20060189679A1, “C10 cyclopropyl ester substituted taxane compositions” (priority 2005, published 2006).

The subject of data set [1] is HT-29 human colon tumor xenografts. The note with it: mouse, in vivo.
The subject of data set [2] is Panc-1 human pancreatic tumor xenografts. The note with it: mouse, in vivo; for antitumor efficacy: iv.
Data set [3] concerns MSTO-211H human mesothelioma xenografts.

Where two headings read alike, the source gives them in different places.

On to `CC(=O)O[C@@]12CO[C@@H]1C[C@H](O)[C@@]1(C)C(=O)[C@H](OC(=O)C3CC3)C3=C(C)[C@@H](OC(=O)[C@H](O)[C@@H](NC(=O)OCC(C)C)c4ccco4)C[C@@](O)([C@@H](OC(=O)c4ccccc4)C12)C3(C)C` (some centres unmarked) [Compound 3102], for which the “time for which growth of HT-29 xenografts was controlled” value in data set [1] (iv) stood at 33 days. In addition, in data set [2] (nude), the “toxicity” value is on record as “proved to be toxic for Panc-1 tumor implanted mice”. Further, the “body weight recovery” value in data set [3] (mouse, in vivo, po, 60 mg/kg) is listed as “recovered weight more rapidly than the Taxotere® group”.

Regarding `CC(=O)O[C@H]1C(=O)[C@@]2(C)[C@H]([C@H](OC(=O)c3ccccc3)[C@]3(O)C[C@H](OC(=O)[C@H](O)[C@@H](NC(=O)c4ccccc4)c4ccccc4)C(C)=C1C3(C)C)[C@]1(OC(C)=O)CO[C@@H]1C[C@@H]2O` [Paclitaxel, paclitaxel], the “# Death TR” value in data set [1] (female, athymic nude) amounted to 0; in data set [2] (female, nude) it was 0. The “# Death NTR” value in data set [1] and in data set [2] was 0 each time. Further, the “antitumor efficacy” value in data set [1] (iv) and in data set [2] was “equally efficacious with orally administered compound 3102” throughout.

Turning to docetaxel, in data set [1], the “# Death NTR” value came to 0, the “# Death TR” value came out at 0 and the “Max. % BW Loss; Day” value is listed as −19.9%;. For the same molecule, the “antitumor efficacy” value in data set [1] (iv) is listed as “equally efficacious with orally administered compound 3102”. In data set [2], the “# Death NTR” value was found to be 0, the “# Death TR” value amounted to 0, the “#CR” value was found to be 0 and the “#PR” value was 5. Besides, in data set [2], the “#SD/PD” value amounted to 1 and the “antitumor efficacy” value is listed as “equally efficacious with orally administered compound 3102”. The “slowing tumor growth” value in data set [3] (MSTO 61604, 30 mg/kg intravenously Q7Dx3) is listed as “only moderately effective in slowing tumor growth”.
